For data set [1], the system named is xenografts of a human meningioma cell line (CH-157MN). As to the kind of experiment: Dynamic PET study: volume of distribution (Vt) by Logan graphical analysis. Format: in vivo, NUDE NU/NU mice. The following applies: comparison between radiotracers. The procedure: (§1) Animals were scanned on a small-animal PET scanner (ARGUS PET-CT, SEDECAL, Madrid, Spain) under anesthesia (isoflurane, 3% induction and 1.5% maintenance in 100% O2). Imaging was performed 7–28 days after tumor cell inoculation. Animals were imaged over four consecutive weeks (at days 7, 14, 21 & 28 after cell inoculation) with one radiotracer (n = 8 with ^68Ga-DOTATOC; n = 4 with ^68Ga-DOTANOC and n = 4 with ^68Ga-DOTATATE). Half of the animals imaged with ^68Ga-DOTATOC were also imaged with the other two radiotracers in alternate days with respect to ^68Ga-DOTATOC (Figure 1). Overall, n values for the PET study were: 27 for ^68Ga-DOTATOC, 20 for ^68Ga-DOTANOC and 21 for ^68Ga-DOTATATE.
The tracers (^68Ga-DOTATOC, ^68Ga-DOTANOC, or ^68Ga-DOTATATE) were injected into the tail vein (mean, 11.47 MBq; range, 9.25–20.35 MBq) and a dynamic study centered in the tumor was acquired for 90.3 minutes (112 frames: 20×10 s, 10×30 s, and 82×60 s). Frames corresponding to the last 60 minutes of the study were summed to form a static image. […]
Vt was calculated from dynamic PET data using standard Logan graphical analysis for a two-tissue reversible compartmental model. […]

The test system is the same in data set [2]. Kind of data set: Static PET/CT study: SUVmax and SUV ratios in mice bearing meningioma xenografts. The following applies: comparison between radiotracers. Format: in vivo, NUDE NU/NU mice. Here is the method: as §1
The tracers (^68Ga-DOTATOC, ^68Ga-DOTANOC, or ^68Ga-DOTATATE) were injected into the tail vein (mean, 11.47 MBq; range, 9.25–20.35 MBq) and a dynamic study centered in the tumor was acquired for 90.3 minutes (112 frames: 20×10 s, 10×30 s, and 82×60 s). Frames corresponding to the last 60 minutes of the study were summed to form a static image. Images were reconstructed using the 2D–OSEM (Ordered Subset Expectation Maximization) algorithm (16 subsets and two iterations), which yields a spatial resolution for this scanner of 1.45 mm Full Width at Half Maximum (FWHM), with a voxel size of 0.3875×0.3875×0.7750 mm^3. […]
Tumor, muscle, and liver SUVmax values at 30–90 minutes post-injection were recorded. […]

Take “^68Ga-DOTA-Nal^3-octreotide [^68Ga-DOTANOC]”: the “Vt liver (hepatic)” value in data set [1] was “significantly higher with ^68Ga-DOTANOC than with ^68Ga-DOTATOC and ^68Ga-DOTATATE”. Further, in data set [1] (two-tissue reversible compartmental model), the Vt tumor result was “lower for ^68Ga-DOTANOC than for the other two tracers”. In addition, the “SUVmax liver (liver uptake)” value in data set [2] (30-90 minutes post-injection, tail vein, ANOVA p<0.001) is “higher uptake than ^68Ga-DOTATOC or ^68Ga-DOTATATE”. Moreover, in data set [2] (SUVmax of tumor normalized to SUVmax of liver, p<0.001), the “T/L SUV ratio (tumor-to-liver)” value was “lower uptake than ^68Ga-DOTATOC and ^68Ga-DOTATATE”.

Source of the values: article PMC4219730, “Meningiomas: A Comparative Study of ^68Ga-DOTATOC, ^68Ga-DOTANOC and ^68Ga-DOTATATE for Molecular Imaging in Mice” (PLoS ONE, 2014).
